Laboratory results: ChEMBL document CHEMBL4371046, “Discovery of 3-Ethyl-4-(3-isopropyl-4-(4-(1-methyl-1 H-pyrazol-4-yl)-1 H-imidazol-1-yl)-1 H-pyrazolo[3,4- b]pyridin-1-yl)benzamide (TAS-116) as a Potent, Selective, and Orally Available HSP90 Inhibitor” (J Med Chem, 2019)
pIC50: −log10 of the molar value.

Target: Heat shock protein HSP 90-alpha (Homo sapiens, UniProt P07900)
Test: Displacement of biotin-labeled geldanamycin from His-tagged HSP90alpha NTD (unknown origin) preincubated for 2 hrs followed by biotin-labeled geldanamycin addition and measured after 1 hr by AlphaScreen assay
Outline: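 Competitive AlphaScreen binding assay. His-tagged HSP90α N-terminal domain was incubated with test compounds at room temperature for 2 h. Biotin-labeled geldanamycin was then added for a further 1 h. Nickel-chelate acceptor and streptavidin donor beads were added, with 1 h incubation in the dark before plate reading. IC50 is given as mean ± SE (n = 3).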

**Q.** `COc1ccc(-c2ccnc3c2c(C(C)C)nn3-c2ccc(C(N)=O)c(N[C@H]3CC[C@H](O)CC3)c2)cn1` was tested. Which pIC50 did it give?
**A.** 5.93

**Q.** `CC(C)c1nn(-c2ccc(C(N)=O)c(N[C@H]3CC[C@H](O)CC3)c2)c2nccc(-c3cnc4ccccc4c3)c12` was tested. Which pIC50 did it give?
**A.** 7.24
